Test results published in patent US20150017739A1.

Legend:
[1] = molecular target: alpha synuclein (αS) oligomers (αS oligomer sample after 6 h incubation; mostly high molecular weight (HMW) αS oligomers) (Homo sapiens (Human)) (UniProt P37840); experiment: FIAsH fluorescence (RFC) titration, PG65 at 0.5 µM against monomer-equivalent αS concentration
[2] = molecular target: αS oligomers prepared after 0 h incubation (Homo sapiens (Human)) (UniProt P37840); experiment: cell-based or functional assay
[3] = molecular target: alpha synuclein (αS) oligomers (αS oligomer sample after 6 h incubation; mostly high molecular weight (HMW) αS oligomers) (Homo sapiens (Human)) (UniProt P37840); experiment: cell-based or functional assay
[4] = molecular target: alpha synuclein (αS) monomers (Homo sapiens (Human)) (UniProt P37840); experiment: SEC, PG65 + αS monomer sample at 35 µM each

Kd [1]: 1000 nM
RFC against αS oligomers formed after 6 h at the same αS concentration [2]: 2 fold lower
quantum yield of FIAsH: PG65 bound to HMW αS oligomers against PG65 without αS [3]: 9 fold
ratio of RFCs: sample with αS monomers, oligomers and fibrils at 2.5 µM each to αS oligomers only at 2.5 µM [3]: 1
αS concentration at which the αS oligomer-dependent RFC leveled off [3]: 2.5 µM
αS oligomer concentration detected by RFC [3]: 1.5 µM
ratio of the major peak area of the mixture sample to that of the simple sum of individual proteins [4]: 1.01
Substance: PG65 (engineered alpha synuclein variant; first αS linker region NVGG replaced with the tetracysteine motif CCPGCC) (designed binder)
